{"source": "paper PMC10333392", "about": "(Molecular Imaging and Biology, 2023)", "key": {"NMDA PCP site": {"molecular_target": "NMDA PCP site (Rattus norvegicus, UniProt P35439)", "details": "cited from earlier work"}, "activated NMDA receptors": {"molecular_target": "activated NMDA receptors (Rattus norvegicus, UniProt P35439)", "assay": "[^18F]FNM microPET/CT brain uptake after stereotaxic quinolinic acid (QA) injection", "details": "for mean SUVR of the [^18F]FNM uptake VOI (SUV area/SUV cerebellum): injured rats, frontal and left somatosensory areas"}, "[1]": {"details": "NaCl_right cortex, 24 h post-injury"}, "[2]": {"details": "NaCl_right cortex, 72 h post-injury"}, "[3]": {"details": "QA_left_cortex, 72 h post-injury"}}, "note": "Several values for one entry are separate records, joined by “and”; a condition that tells them apart may be missing. Equal values may be shown once. Read-outs that look alike come from different tables or passages of the source."}
{"substance": "[^3H]N-(1-[thienyl]cyclohexyl)piperidine", "values": [{"measurement": "Kd", "setting": "NMDA PCP site; rat forebrain, ref Bénavidès et al. 32", "value": 21, "unit": "nM"}, {"measurement": "Kd", "setting": "NMDA PCP site; rat frontal cortex, ref Vignon et al. 31", "value": 6.5, "unit": "nM"}, {"measurement": "Kd", "setting": "NMDA PCP site; rat hippocampus, ref Vignon et al. 31", "value": 5.5, "unit": "nM"}]}
{"substance": "[^18F]-fluoroethylnormemantine", "values": [{"measurement": "Mean number of voxels ± SD with z-score > 3", "setting": "activated NMDA receptors; [1]", "value": "153 ± 4"}, {"measurement": "percentage of voxels with z-score > 3 (mean ± SD)", "setting": "activated NMDA receptors; [1]", "value": "0.7 ± 0.03", "unit": "%"}, {"measurement": "Mean number of voxels ± SD with z-score > 3", "setting": "activated NMDA receptors; [2]", "value": "141 ± 58"}, {"measurement": "percentage of voxels with z-score > 3 (mean ± SD)", "setting": "activated NMDA receptors; [2]", "value": "0.7 ± 0.5% and 0.65 ± 0.46%"}, {"measurement": "percentage of voxels with z-score > 3 (mean ± SD)", "setting": "activated NMDA receptors; QA_left_cortex, 24 h post-injury", "value": "12.1 ± 7.7", "unit": "%"}, {"measurement": "Mean number of voxels ± SD with z-score > 3", "setting": "activated NMDA receptors; [3]", "value": "1644 ± 624"}, {"measurement": "percentage of voxels with z-score > 3 (mean ± SD)", "setting": "activated NMDA receptors; [3]", "value": "7.5 ± 6.4% and 7.54 ± 6.40%"}, {"measurement": "mean SUVR (SUV area/SUV cerebellum)", "setting": "activated NMDA receptors; frontal and somatosensory areas of controls (non-injured rats)", "value": "1.10 ± 0.12"}, {"measurement": "mean SUVR of the [^18F]FNM uptake VOI (SUV area/SUV cerebellum)", "setting": "activated NMDA receptors; 24 h after injury", "value": "1.51 ± 0.08"}, {"measurement": "mean SUVR of the [^18F]FNM uptake VOI (SUV area/SUV cerebellum)", "setting": "activated NMDA receptors; 72 h after injury", "value": "1.55 ± 0.15"}]}
